The target of the assay is rat CB2 receptor (rCB2) (Rattus norvegicus, UniProt Q9QZN9). Put plainly: cAMP assay (LANCE TR-FRET) in CHO-K1 cells expressing rCB2. It is filed as cell-based. Conditions: read-out: rCB2 EC50 range, intracellular cAMP, NKH-477 prestimulated, + agonist, − inverse agonist. (cAMP levels reflect the balance of adenylyl cyclase and phosphodiesterase activity.)

Sequences of proteins named here, by UniProt entry; tags and fusion partners are left off. A change or cut given only in a name is not applied to a line headed by its entry.
UniProt Q9QZN9: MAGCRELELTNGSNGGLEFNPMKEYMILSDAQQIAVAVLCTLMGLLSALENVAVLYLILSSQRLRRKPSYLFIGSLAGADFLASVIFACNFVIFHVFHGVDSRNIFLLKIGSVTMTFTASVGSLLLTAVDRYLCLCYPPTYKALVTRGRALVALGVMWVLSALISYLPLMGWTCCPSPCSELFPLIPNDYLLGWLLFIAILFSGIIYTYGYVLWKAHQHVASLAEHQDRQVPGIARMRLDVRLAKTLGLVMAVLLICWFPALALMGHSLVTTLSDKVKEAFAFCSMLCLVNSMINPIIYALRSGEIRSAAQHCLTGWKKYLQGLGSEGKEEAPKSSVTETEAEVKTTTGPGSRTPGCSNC

In general, EC50 refers to the midpoint of the concentration-response curve.

Turning to `O=S(=O)(c1ccc(C(F)(F)F)cc1)N1CCSc2ccc(-c3nc(-c4cccc(C(F)(F)F)c4)no3)cc21` [Example 80, 3-(3-(trifluoromethyl)phenyl)-5-(4-(4-(trifluoromethyl)phenylsulfonyl)-3,4-dihydro-2H-benzo[b][1,4]thiazin-6-yl)-1,2,4-oxadiazole], the EC50 is greater than 10 µM.
